According to patent US20250135016A1, “MOLECULAR LOGIC GATES FOR CONTROLLED MATERIAL DEGRADATION” (University of Washington, priority 2016, published 2025):

Assays:
[1] = system: hS5 bone marrow-derived stromal cells; experiment: Hydrogel-encapsulated cell release studies; assay type: cell-based, human; conditions: R gels BME 0.25 mM 45 minutes; P gels UV 10 minutes; E gels MMP-8 0.20 nM 60 minutes
Protocol: Four human bone marrow-derived stromal cell lines [hS5], including one non-fluorescent control and three each stably transfected to express a single fluorescent protein [mCherry, green fluorescent protein (GFP), or blue fluorescent protein (BFP)], were cultured at 37° C. in Roswell Park Memorial Institute medium 1640 (RPMI-1640, Corning) supplemented with 10% FBS and 1% PS.
Hydrogels were formed sandwiched between an azide-functional glass slide and a Rain-X®-treated glass slide separated by two 0.005″ thick silicone spacers (McMaster-Carr). A precursor solution containing PEG-tetraBCN (Method S22, 2 mM), the P crosslinker (Method S7, 4 mM), and hS5-GFP^+ (40×10^6 cells mL^−1) was injected between the silicone spacers and reacted for one hour. […]
Following each degradative step, cells that remained encapsulated in the intact gel were imaged using fluorescent confocal microscopy. Three channels—one for each fluorescent protein—were simultaneously monitored. For visualization, fluorescence corresponding to mCherry (excitation 587 nm, emission 626-703 nm), GFP (excitation 489 nm, emission 499-570 nm), and BFP (excitation 405 nm, emission 413-494 nm) were false colored as red, green, and blue, respectively. […]
Gels were degraded and the viability of the released cells was assessed. […]

[2] = Logic-based hydrogel degradation in response to sequential stimuli (supernatant fluorescence); conditions: all eight input combinations of reductant, MMP enzyme and light; endpoint supernatant fluorescence

For “N3—(CH2)3CONH-RGC(N3—(CH2)3CONH-RGC-NH2)—NH2”, the “Gel degradation for viability studies” value [1] was “complete hydrogel degradation” and the Hydrogel degradation response [2] was “degrading only when the programmed cue was present”.
